Experiments:
[1] = substrate: Nc1nc2c(ncn2/C=C2/CC2(CO)CO)c(=O)[nH]1; conditions: Human betaherpesvirus 5; pUL97
[2] = substrate: Nc1nc2c(ncn2/C=C2/CC2(CO)CO)c(=O)[nH]1; conditions: Human betaherpesvirus 5; pUL97; remark: listed apart in the source

B1: Serine/threonine protein kinase UL97 (Human herpesvirus 5), P16788 (protein)
chain: MSSALRSRARSASLGTTTQGWDPPPLRRPSRARRRQWMREAAQAAAQAAVQAAQAAAAQVAQAHVDENEVVDLMADEAGGGVTTLTTLSSVSTTTVLGHATFSACVRSDVMRDGEKEDAASDKENLRRPVVPSTSSRGSAASGDGYHGLRCRETSAMWSFEYDRDGDVTSVRRALFTGGSDPSDSVSGVRGGRKRPLRPPLVSLARTPLCRRRVGGVDAVLEENDVELRAESQDSAVASGPGRIPQPLSGSSGEESATAVEADSTSHDDVHCTCSNDQIITTSIRGLTCDPRMFLRLTHPELCELSISYLLVYVPKEDDFCHKICYAVDMSDESYRLGQGSFGEVWPLDRYRVVKVARKHSETVLTVWMSGLIRTRAAGEQQQPPSLVGTGVHRGLLTATGCCLLHNVTVHRRFHTDMFHHDQWKLACIDSYRRAFCTLADAIKFLNHQCRVCHFDITPMNVLIDVNPHNPSEIVRAALCDYSLSEPYPDYNERCVAVFQETGTARRIPNCSHRLRECYHPAFRPMPLQKLLICDPHARFPVAGLRRYCMSELSALGNVLGFCLMRLLDRRGLDEVRMGTEALLFKHAGAACRALENGKLTHCSDACLLILAAQMSYGACLLGEHGAALVSHTLRFVEAKMSSCRVRAFRRFYHECSQTMLHEYVRKNVERLLATSDGLYLYNAFRRTTSIICEEDLDGDCRQLFPE
kcat/Km [1]: 0.69 M⁻¹ s⁻¹
Km [2]: 1750 µM
kcat [2]: 0.0012 s⁻¹

Reference: ChEMBL document CHEMBL1275262, “Stereoselective phosphorylation of cyclopropavir by pUL97 and competitive inhibition by maribavir” (Antimicrob Agents Chemother, 2010)
